Experimental data as given in patent US20190330224A1, “ACC INHIBITORS AND USES THEREOF” (Gilead Apollo, LLC, priority 2015, published 2019).

Amino acid sequences for entries named in this document (tags omitted).
UniProt Q00955, whole entry: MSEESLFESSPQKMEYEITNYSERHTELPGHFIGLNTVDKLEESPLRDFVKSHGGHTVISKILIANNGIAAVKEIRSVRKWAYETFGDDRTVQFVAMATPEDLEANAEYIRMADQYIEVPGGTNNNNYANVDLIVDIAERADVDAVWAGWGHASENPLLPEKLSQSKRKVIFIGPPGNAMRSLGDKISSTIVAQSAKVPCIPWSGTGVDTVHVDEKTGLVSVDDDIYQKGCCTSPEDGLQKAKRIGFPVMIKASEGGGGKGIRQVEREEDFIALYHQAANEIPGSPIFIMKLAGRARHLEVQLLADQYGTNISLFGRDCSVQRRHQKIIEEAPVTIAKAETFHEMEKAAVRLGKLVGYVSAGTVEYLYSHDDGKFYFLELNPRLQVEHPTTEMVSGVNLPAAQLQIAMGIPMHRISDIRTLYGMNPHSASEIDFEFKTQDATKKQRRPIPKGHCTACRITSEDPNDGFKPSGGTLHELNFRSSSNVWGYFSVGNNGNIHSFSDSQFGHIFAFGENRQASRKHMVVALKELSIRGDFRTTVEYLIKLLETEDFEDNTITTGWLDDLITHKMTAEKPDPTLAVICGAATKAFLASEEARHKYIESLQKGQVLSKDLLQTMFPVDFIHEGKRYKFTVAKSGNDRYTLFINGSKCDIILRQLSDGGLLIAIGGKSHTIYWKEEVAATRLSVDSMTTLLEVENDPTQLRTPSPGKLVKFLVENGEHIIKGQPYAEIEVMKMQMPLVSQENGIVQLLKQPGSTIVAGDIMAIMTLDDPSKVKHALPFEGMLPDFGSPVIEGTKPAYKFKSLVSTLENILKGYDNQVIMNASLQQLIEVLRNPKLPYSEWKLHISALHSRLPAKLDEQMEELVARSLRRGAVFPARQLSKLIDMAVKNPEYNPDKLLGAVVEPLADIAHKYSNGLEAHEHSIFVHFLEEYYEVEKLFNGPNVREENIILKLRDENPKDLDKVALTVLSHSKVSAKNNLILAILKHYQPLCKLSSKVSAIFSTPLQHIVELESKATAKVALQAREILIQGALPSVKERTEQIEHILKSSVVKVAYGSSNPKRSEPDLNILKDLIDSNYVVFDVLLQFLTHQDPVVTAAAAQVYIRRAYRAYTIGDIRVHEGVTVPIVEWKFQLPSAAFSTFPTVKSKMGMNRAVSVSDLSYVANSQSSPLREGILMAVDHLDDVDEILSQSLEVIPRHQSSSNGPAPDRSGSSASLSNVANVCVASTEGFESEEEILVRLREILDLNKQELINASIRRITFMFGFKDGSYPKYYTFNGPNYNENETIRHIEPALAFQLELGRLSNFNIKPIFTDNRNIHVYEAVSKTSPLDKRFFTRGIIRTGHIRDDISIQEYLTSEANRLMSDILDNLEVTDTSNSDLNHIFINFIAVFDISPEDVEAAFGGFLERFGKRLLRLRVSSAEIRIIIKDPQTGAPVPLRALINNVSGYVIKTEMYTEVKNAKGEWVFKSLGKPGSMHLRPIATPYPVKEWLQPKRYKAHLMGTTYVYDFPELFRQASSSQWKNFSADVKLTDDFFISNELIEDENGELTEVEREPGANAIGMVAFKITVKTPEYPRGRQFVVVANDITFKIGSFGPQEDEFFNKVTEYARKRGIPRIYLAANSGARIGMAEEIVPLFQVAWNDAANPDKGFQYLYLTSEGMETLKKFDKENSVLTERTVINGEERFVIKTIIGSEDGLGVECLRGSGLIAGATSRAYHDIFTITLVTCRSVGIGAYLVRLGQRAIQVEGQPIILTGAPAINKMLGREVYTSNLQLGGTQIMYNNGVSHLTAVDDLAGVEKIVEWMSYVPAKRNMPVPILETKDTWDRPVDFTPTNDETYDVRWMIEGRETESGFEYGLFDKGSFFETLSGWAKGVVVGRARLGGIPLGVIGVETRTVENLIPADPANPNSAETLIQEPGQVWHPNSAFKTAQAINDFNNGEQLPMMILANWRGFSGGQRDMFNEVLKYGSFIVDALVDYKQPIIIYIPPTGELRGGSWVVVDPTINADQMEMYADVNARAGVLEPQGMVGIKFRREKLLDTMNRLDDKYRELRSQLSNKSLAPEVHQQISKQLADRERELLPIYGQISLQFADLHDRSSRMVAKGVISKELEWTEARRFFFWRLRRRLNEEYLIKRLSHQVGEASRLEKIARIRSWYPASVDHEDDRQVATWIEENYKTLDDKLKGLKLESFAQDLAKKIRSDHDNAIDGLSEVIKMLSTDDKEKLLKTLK

What follows are molecules tested against Fungal ACC2 (UniProt Q00955). Settings: read-out: Fungal ACC2 (IC50, in vitro ACC2 inhibition).
`COc1ccc(F)cc1[C@H](Cn1c(=O)n([C@@H]2CCCN(C)C2=O)c(=O)c2c(C)c(-c3ncco3)sc21)OCCO` [Compound I-65, 1-((R)-2-(5-fluoro-2-methoxyphenyl)-2-(2-hydroxy-ethoxy)ethyl)-5-methyl-3-((R)-1-methyl-2-oxopiperidin-3-yl)-6-(oxazol-2-yl)thieno[2,3-d]pyrimidine-2,4(1H,3H)-dione] was tested, and the IC50 was 2 to 10 nM. `COc1ccc(F)cc1[C@H](Cn1c(=O)n([C@@H]2CCCN(C(C)C)C2=O)c(=O)c2c(C)c(-n3nccn3)sc21)OCCO` [Compound I-75, 1-((R)-2-(5-fluoro-2-methoxyphenyl)-2-(2-hydroxy-ethoxy)ethyl)-3-((R)-1-isopropyl-2-oxopiperidin-3-yl)-5-methyl-6-(2H-1,2,3-triazol-2-yl)thieno[2,3-d]pyrimidine-2,4(1H,3H)-dione] gave an IC50 of 0.7 to 2 nM. For `COc1ccc(F)cc1[C@H](Cn1c(=O)n([C@H]2CCN(C(C)C)C2=O)c(=O)c2c(C)c(-n3nccn3)sc21)OCCO` [Compound I-84, 1-((R)-2-(5-fluoro-2-methoxyphenyl)-2-(2-hydroxy-ethoxy)ethyl)-3-((S)-1-isopropyl-2-oxopyrrolidin-3-yl)-5-methyl-6-(2H-1,2,3-triazol-2-yl)thieno[2,3-d]pyrimidine-2.4(1H,3H)-dione], the IC50 was 0.7 to 2 nM. `COc1ccc(F)cc1[C@H](Cn1c(=O)n([C@H]2CCCNC2=O)c(=O)c2c(C)c(-n3nccn3)sc21)OC1CCOCC1` [Compound I-37, 1-((R)-2-(5-fluoro-2-methoxyphenyl)-2-((tetrahydro-2H-pyran-4-yl)oxy)ethyl)-5-methyl-3-((S)-2-oxopiperidin-3-yl)-6-(2H-1,2,3-triazol-2-yl)thieno[2,3-d]pyrimidine-2,4(1H,3H)-dione] gave an IC50 of 0.7 to 2 nM. For `COc1ccc(F)cc1[C@H](Cn1c(=O)n([C@@]2(C)CCC(=O)NC2)c(=O)c2c(C)c(-n3nccn3)sc21)OCCO` [Compound I-135, 1-((R)-2-(5-fluoro-2-methoxyphenyl)-2-(2-hydroxy-ethoxy)ethyl)-5-methyl-3-((S)-3-methyl-6-oxopiperidin-3-yl)-6-(2H-1,2,3-triazol-2-yl)thieno[2,3-d]pyrimidine-2,4(1H,3H)-dione], the IC50 was 0.7 to 2 nM. Molecule `COc1ccc(F)cc1[C@H](Cn1c(=O)n([C@H]2CCCN(C(C)C)C2=O)c(=O)c2c(C)c(-n3nccn3)sc21)OCCO` [Compound I-74, 1-((R)-2-(5-fluoro-2-methoxyphenyl)-2-(2-hydroxy-ethoxy)ethyl)-3-((S)-1-isopropyl-2-oxopiperidin-3-yl)-5-methyl-6-(2H-1,2,3-triazol-2-yl)thieno[2,3-d]pyrimidine-2,4(1H,3H)-dione] has an IC50 of 0.7 to 2 nM. With `COc1ccc(F)cc1[C@H](Cn1c(=O)n([C@@H]2CCN(C(C)C)C2=O)c(=O)c2c(C)c(-n3nccn3)sc21)OCCO` [Compound I-85, 1-((R)-2-(5-fluoro-2-methoxyphenyl)-2-(2-hydroxy-ethoxy)ethyl)-3-((S)-1-isopropyl-2-oxopyrrolidin-3-yl)-5-methyl-6-(2H-1,2,3-triazol-2-1)thieno[2,3-d]pyrimidine-2,4(1H,3H)-dione] the IC50 was 0.7 to 2 nM. With `COc1ccc(F)cc1[C@H](Cn1c(=O)n([C@@H]2CCCNC2=O)c(=O)c2c(C)c(-n3nccn3)sc21)OC1CCOCC1` [Compound I-38, 1-((R)-2-(5-fluoro-2-methoxyphenyl)-2-((tetrahydro-2H-pyran-4-yl)oxy)ethyl)-5-methyl-3-((R)-2-oxopiperidin-3-yl)-6-(2H-1,2,3-triazol-2-yl)thieno[2,3-d]pyrimidine-2,4(1H,3H)-dione] the IC50 was 0.7 to 2 nM. With `COc1ccc(F)cc1[C@H](Cn1c(=O)n([C@H]2CCCN(C(C)C)C2=O)c(=O)c2c(C)c(-n3nccn3)sc21)OC1CCOCC1` [Compound I-76, 1-((R)-2-(5-fluoro-2-methoxyphenyl)-2-((tetrahydro-2H-pyran-4-yl)oxy)ethyl)-3-((S)-1-isopropyl-2-oxopiperidin-3-yl)-5-methyl-6-(2H-1,2,3-triazol-2-yl)thieno[2,3-d]pyrimidine-2,4(1H,3H)-dione] the IC50 was 0.7 to 2 nM. Molecule `CCN1CC[C@@H](n2c(=O)c3c(C)c(-n4nccn4)sc3n(C[C@H](OC3CCOCC3)c3cc(F)ccc3OC)c2=O)C1=O` [Compound I-151] has an IC50 of 0.7 to 2 nM.
